Target: Leucine-rich repeat serine/threonine-protein kinase 2 (Homo sapiens, UniProt Q5S007, G2019S)
Test: Inhibition of recombinant human GST-tagged LRRK2 (970 to 2527 residues) G2019S mutant expressed in baculovirus using fluorescein-ERM as substrate preincubated for 30 mins followed by substrate addition measured after 1 hr in presence of 5 mM ATP by TR-FRET assay

By UniProt entry, the sequences of proteins in these tests, tags left out.
UniProt Q5S007, whole entry G2019S: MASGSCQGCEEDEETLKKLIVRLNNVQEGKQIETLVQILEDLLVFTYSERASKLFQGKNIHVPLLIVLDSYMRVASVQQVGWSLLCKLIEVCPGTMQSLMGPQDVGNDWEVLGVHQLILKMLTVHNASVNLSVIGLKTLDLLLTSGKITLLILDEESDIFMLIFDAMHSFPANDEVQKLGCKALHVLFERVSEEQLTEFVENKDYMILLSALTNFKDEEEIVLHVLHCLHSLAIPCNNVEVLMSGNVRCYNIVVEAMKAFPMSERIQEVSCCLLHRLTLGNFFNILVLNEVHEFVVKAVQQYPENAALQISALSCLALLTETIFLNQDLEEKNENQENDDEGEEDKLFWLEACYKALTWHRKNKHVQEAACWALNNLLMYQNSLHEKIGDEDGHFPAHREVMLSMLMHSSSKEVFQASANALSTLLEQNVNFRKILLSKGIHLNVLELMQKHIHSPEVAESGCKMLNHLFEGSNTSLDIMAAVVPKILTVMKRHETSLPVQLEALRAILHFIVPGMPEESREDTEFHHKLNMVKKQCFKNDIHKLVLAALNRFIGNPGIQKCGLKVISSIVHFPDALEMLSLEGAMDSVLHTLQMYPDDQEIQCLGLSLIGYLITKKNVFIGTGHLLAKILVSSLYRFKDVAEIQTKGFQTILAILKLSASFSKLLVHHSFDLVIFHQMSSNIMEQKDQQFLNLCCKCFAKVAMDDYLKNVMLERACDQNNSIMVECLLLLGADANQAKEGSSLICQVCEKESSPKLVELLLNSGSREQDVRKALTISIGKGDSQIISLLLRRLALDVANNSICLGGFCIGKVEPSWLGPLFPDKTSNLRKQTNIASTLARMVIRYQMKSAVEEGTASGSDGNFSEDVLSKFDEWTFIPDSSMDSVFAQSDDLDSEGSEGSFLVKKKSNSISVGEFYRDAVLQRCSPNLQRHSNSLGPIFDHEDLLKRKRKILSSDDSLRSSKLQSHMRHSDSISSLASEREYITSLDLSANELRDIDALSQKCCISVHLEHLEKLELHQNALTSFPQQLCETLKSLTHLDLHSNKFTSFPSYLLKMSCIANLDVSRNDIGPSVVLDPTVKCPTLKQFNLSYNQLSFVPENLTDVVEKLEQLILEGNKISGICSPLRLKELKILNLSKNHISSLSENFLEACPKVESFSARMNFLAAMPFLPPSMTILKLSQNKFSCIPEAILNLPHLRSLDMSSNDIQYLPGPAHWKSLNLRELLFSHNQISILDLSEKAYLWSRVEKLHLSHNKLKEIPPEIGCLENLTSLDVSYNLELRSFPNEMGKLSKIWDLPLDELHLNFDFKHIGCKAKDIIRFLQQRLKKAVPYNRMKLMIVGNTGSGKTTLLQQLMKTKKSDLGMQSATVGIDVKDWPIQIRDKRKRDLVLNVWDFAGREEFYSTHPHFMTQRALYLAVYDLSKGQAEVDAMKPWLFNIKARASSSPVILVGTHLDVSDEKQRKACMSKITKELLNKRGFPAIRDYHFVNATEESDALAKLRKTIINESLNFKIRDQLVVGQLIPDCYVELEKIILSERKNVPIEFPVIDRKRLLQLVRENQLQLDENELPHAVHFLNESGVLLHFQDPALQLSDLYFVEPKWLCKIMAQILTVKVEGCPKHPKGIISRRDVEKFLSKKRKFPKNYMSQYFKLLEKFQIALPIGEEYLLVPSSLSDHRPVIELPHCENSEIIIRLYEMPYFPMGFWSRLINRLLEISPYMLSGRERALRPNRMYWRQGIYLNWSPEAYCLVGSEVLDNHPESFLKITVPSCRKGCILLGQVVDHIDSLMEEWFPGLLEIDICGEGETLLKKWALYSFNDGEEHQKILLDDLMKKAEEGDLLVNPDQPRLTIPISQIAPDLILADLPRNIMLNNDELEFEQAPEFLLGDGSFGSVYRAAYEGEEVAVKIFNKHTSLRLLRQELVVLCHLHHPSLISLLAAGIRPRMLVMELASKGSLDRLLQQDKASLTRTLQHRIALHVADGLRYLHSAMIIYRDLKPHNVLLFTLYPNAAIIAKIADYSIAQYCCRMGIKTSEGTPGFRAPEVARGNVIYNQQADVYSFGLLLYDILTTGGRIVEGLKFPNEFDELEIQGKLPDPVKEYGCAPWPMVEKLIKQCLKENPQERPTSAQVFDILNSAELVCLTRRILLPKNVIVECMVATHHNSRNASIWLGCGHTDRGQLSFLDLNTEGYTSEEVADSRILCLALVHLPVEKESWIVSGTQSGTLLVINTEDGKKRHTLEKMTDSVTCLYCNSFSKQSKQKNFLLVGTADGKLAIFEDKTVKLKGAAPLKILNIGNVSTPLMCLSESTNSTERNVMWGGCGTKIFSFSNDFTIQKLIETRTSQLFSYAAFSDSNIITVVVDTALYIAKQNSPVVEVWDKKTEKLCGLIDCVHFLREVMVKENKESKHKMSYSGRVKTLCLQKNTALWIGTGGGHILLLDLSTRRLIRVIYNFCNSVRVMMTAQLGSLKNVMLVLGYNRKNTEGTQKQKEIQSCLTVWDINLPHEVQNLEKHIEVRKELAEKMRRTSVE

**Q.** `CC1(Oc2ccc3[nH]nc(-c4cc(N5CCOCC5)ncn4)c3c2)CC1` was tested. Which IC50 did it give?
**A.** The IC50 was 10 nM.

— ChEMBL document CHEMBL4007454 (J Med Chem, 2017)
